By UniProt entry, the sequences of proteins in these tests, tags left out. Where a name states a change or a piece, a line headed by the entry shows the natural chain unless it says otherwise.
UniProt P10275: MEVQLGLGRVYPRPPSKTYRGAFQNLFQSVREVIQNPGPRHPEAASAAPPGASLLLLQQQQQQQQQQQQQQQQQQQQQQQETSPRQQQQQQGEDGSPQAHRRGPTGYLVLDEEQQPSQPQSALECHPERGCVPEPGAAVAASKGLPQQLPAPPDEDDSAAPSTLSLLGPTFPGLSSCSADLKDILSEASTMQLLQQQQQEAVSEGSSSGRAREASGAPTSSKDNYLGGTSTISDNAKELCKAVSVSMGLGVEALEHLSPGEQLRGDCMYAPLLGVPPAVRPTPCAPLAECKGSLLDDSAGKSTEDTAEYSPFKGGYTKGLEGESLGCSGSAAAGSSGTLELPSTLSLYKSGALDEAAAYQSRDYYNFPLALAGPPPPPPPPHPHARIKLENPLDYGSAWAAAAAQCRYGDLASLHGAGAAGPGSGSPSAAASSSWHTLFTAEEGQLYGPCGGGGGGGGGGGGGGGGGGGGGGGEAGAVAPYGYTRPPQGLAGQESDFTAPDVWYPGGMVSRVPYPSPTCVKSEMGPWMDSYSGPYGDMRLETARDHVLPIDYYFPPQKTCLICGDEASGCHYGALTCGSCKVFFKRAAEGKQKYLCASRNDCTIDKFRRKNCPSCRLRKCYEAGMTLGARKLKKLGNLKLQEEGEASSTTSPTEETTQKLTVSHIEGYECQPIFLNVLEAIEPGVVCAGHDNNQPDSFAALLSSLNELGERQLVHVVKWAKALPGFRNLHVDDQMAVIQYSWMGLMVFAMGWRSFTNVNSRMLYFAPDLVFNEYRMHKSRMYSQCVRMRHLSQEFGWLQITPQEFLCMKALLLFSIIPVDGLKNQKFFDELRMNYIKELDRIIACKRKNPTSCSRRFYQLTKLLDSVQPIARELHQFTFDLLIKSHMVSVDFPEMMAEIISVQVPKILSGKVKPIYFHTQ

In ChEMBL document CHEMBL1156129, “Synthesis, structure-activity relationships, and characterization of novel nonsteroidal and selective androgen receptor modulators” (J Med Chem, 2009):

Target: Androgen receptor (Homo sapiens, UniProt P10275)

**Q.** With N#Cc1ccc(N2[C@@H]3CC[C@H]2C[C@@H](O)C3)c2ccccc12 (stereo in doubt; 2) as the compound, how does the EC50 read?
**A.** 1.58 nM
